# Tested on: opiate receptor sites
# Details: isolated guinea pig ileum twitch response, dose response curve compared with Met enkephalin
# From the text: The test used for the detection of their agonist activity at opiate receptor sites is that employing the transmurally stimulates guinea pig ileum preparation described in Kosterlitz et al., Brit. J. Pharmacol, and Chemotherapy 33. 266-276 (1968). […] Exp. Ther. 125, 237 (1959) and by the rat tail flick test (intravenous administration) according to Jansen et al., Arzneim Forsch. 13, 266 (1963).
# In the above mentioned test method of Kosterlitz et al male or female guinea pigs (Duncan Hartley strain) are killed by a blow on the head and a portion of the ileum removed and set up in an isolated organ bath of 50 ml volume. A `twitch` response is produced by low frequency (0.1 Hz) stimulation with 0.5 msec rectilinear pulses. A test compound is dissolved in distilled water to produce a stock solution of concentration 1 mg/ml. Serial dilutions are carried out using Krebs solution to produce concentrations of 10 μg, 1 μg and 0.1 μg/ml. The compound is tested by adding between 0.1-0.3 ml of the solutions to the organ bath. A dose response curve is then drawn and compared with that for Met enkephalin.
structure (smiles),measurement,value
"CN1CC[C@]23c4c5ccc(O)c4O[C@H]2[C@@H](O)C=C[C@H]3[C@H]1C5 [Morphine, reference compound]",G.P.I. Potency (X Met enkephalin),≈ 1.0 X Met enkephalin
